The test system of experiment [1] is Oryctolagus cuniculus. The experiment is described as follows: Ability to inhibit neuromuscular transmission in rabbit was determined at a dose 5.6 mg/kg.
Experiment [2] concerns Oryctolagus cuniculus. The experiment can be described thus: Ability to inhibit neuromuscular transmission in rabbit was determined at a dose 1.8 mg/kg.
Experiment [3] deals with Oryctolagus cuniculus. The experiment can be described thus: Ability to inhibit neuromuscular transmission in rabbit was determined at a dose 0.16 mg/kg.
In experiment [4] the test system is Oryctolagus cuniculus. The experiment can be described thus: Ability to inhibit neuromuscular transmission in rabbit was determined at a dose 2.08 mg/kg.

Molecules are shown by their SMILES. Active and inactive are the calls of the source. The calls are words filed in the database; no cut-off is given here.

On to `O=C(CN1CCCC1)c1ccc(-c2ccc(C(=O)CN3CCCC3)cc2)cc1`, for which the result with Oryctolagus cuniculus [1] was inactive.

As to `O=C(CN1CCCCC1)c1ccc(-c2ccc(C(=O)CN3CCCCC3)cc2)cc1`, in the experiment on Oryctolagus cuniculus [2], the result was inactive.

As to `CC1C[N+](C)(CC(=O)c2ccc(-c3ccc(C(=O)C[N+]4(C)CCOC(C)C4)cc3)cc2)CCO1` (centres undefined), the outcome in the experiment with Oryctolagus cuniculus [3] was inactive.

For the molecule `O=C(CN1CCOCC1)c1ccc(-c2ccc(C(=O)CN3CCOCC3)cc2)cc1`, the outcome with Oryctolagus cuniculus [4] was inactive.

These data come from ChEMBL document CHEMBL1125045, “Hemicholinium-3 congeners as potential antagonists to organophosphate-induced toxicity” (1990).
